Measured values taken from ChEMBL document CHEMBL5137076, “SLL-627 Is a Highly Selective and Potent κ Opioid Receptor (KOR) Agonist with an Unexpected Nonreduction in Locomotor Activity” (2022).

Amino acid sequences for entries named in this document (tags omitted).
UniProt P41145, whole entry: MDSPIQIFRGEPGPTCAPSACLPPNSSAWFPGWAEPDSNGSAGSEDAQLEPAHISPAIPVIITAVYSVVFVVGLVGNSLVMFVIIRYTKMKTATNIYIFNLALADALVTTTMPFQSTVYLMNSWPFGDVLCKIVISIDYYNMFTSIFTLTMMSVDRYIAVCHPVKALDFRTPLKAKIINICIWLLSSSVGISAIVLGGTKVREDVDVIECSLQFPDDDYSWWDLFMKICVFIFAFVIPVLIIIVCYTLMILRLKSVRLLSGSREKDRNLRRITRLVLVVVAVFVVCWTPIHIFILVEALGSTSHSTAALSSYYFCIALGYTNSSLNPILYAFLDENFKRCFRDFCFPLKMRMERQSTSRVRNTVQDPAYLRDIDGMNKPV
UniProt P33533, whole entry: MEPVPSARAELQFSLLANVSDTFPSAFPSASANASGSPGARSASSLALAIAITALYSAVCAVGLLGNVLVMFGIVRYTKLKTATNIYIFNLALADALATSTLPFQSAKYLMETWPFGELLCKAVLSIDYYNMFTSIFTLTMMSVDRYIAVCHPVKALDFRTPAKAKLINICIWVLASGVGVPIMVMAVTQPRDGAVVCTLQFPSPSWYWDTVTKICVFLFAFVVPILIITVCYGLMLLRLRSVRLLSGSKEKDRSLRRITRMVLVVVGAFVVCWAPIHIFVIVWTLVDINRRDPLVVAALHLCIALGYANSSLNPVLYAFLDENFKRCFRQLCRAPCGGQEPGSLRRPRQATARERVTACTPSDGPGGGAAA
UniProt P33535, whole entry: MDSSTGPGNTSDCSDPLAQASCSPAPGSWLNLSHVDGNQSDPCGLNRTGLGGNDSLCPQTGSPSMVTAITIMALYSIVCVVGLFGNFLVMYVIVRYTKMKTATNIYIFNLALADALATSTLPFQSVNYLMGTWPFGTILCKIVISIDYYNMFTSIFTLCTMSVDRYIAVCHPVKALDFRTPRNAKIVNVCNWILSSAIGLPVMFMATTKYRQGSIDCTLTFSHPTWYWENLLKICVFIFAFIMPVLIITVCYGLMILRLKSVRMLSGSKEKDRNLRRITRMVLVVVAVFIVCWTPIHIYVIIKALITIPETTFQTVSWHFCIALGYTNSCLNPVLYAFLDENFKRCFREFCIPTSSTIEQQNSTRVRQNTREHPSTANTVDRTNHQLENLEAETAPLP

Key:
[1] = molecular target: T1, Kappa-type opioid receptor (Homo sapiens, UniProt P41145); experiment: Displacement of [3H]U69593 from human KOR expressed in CHO cell membranes incubated for 30 mins by liquid scintillation counting method
[2] = molecular target: T2, Delta-type opioid receptor (Rattus norvegicus, UniProt P33533); experiment: Displacement of [3H]DPDPE from rat DOR expressed in CHO cell membranes incubated for 30 mins by liquid scintillation counting method
[3] = molecular target: T3, Mu-type opioid receptor (Rattus norvegicus, UniProt P33535); experiment: Displacement of [3H]DAMGO from rat MOR expressed in CHO cell membranes incubated for 30 mins by liquid scintillation counting method
[4] = molecular target: T1, Kappa-type opioid receptor; experiment: Agonist activity at human KOR expressed in CHO cell membranes after 1 hr by [35S]GTPgammaS binding assay
[5] = molecular target: T2, Delta-type opioid receptor; experiment: Agonist activity at rat DOR expressed in CHO cell membranes after 1 hr by [35S]GTPgammaS binding assay
[6] = molecular target: T3, Mu-type opioid receptor; experiment: Agonist activity at rat MOR expressed in CHO cell membranes after 1 hr by [35S]GTPgammaS binding assay

SMILES | Ki [1] [nM] | Ki [2] [nM] | Ki [3] [nM] | EC50 [4] [nM] | EC50 [5] [nM] | EC50 [6] [nM]
COc1ccc2c3c1O[C@H]1[C@@]4(OC)CC[C@@]5(C[C@@]4(C)[C@H](O)c4ccc(C(F)(F)F)cc4)[C@@H](C2)N(CC2CC2)CC[C@]315 | 0.051 | 74.4 | 0.024 | – | – | –
COc1cccc([C@@H](O)[C@]2(C)C[C@@]34CC[C@]2(OC)[C@@H]2Oc5c(OC)ccc6c5[C@@]23CCN(CC2CC2)[C@@H]4C6)c1 | 16.8 | 867 | 38.9 | – | – | –
COc1cccc(C(=O)[C@]2(C)C[C@@]34CC[C@]2(OC)[C@@H]2Oc5c(OC)ccc6c5[C@@]23CCN(CC2CC2)[C@@H]4C6)c1 | 12.5 | 48.6 | 109 | 52.1 | 951 | 193
COc1ccc2c3c1O[C@H]1[C@@]4(OC)CC[C@@]5(C[C@@]4(C)CO)[C@@H](C2)N(CC2CC2)CC[C@]315 | – | 125 | – | – | 154 | –
COc1ccc([C@@H](O)[C@]2(C)C[C@@]34CC[C@]2(OC)[C@@H]2Oc5c(OC)ccc6c5[C@@]23CCN(CC2CC2)[C@@H]4C6)cc1 | 6.1 | 178 | 3.9 | – | – | –
COc1ccc2c3c1O[C@H]1[C@@]4(OC)CC[C@@]5(C[C@@]4(C)[C@H](O)c4ccc(C)cc4)[C@@H](C2)N(CC2CC2)CC[C@]315 | 13.1 | > 5000 | 10.6 | – | – | –
COc1ccc2c3c1O[C@H]1[C@@]4(OC)CC[C@@]5(C[C@@]4(C)C(=O)c4ccc(C(F)(F)F)cc4)[C@@H](C2)N(CC2CC2)CC[C@]315 | 35 | 953 | 51.5 | 105 | 1320 | 1730
